# Measurements: ChEMBL document CHEMBL1126102, “2-(N'-aralkylidenehydrazino)adenosines: potent and selective coronary vasodilators” (J Med Chem, 1992)
# Chains of the proteins cited; added tags and fusions are not shown.
# UniProt P47745, whole entry: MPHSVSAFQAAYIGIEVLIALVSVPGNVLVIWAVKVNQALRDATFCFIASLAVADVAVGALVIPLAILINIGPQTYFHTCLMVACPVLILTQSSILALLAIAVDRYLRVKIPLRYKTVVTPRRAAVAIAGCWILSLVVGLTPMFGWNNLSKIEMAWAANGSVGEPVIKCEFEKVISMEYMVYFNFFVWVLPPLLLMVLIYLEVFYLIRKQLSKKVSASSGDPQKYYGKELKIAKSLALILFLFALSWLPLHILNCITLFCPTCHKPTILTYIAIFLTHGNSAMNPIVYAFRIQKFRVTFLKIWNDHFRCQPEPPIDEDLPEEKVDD
# Target: Adenosine receptor A1 (Cavia porcellus, UniProt P47745)
# Experiment: Tested for adenosine A1 receptor agonistic activity by determining concentration needed to prolong the stimulus-QRS interval by 50% of the maximum response
# Assay type: functional
smiles,measurement,value
COc1ccc(/C=N/Nc2nc(N)c3ncn([C@@H]4O[C@H](CO)[C@@H](O)[C@H]4O)c3n2)cc1,EC50,22.9 µM
